Measured values: ChEMBL document CHEMBL4184196, “Design, synthesis, and evaluation of polyamine-memantine hybrids as NMDA channel blockers” (Bioorg Med Chem, 2018)

Chains of the proteins cited; added tags and fusions are not shown.
UniProt Q00960, whole entry: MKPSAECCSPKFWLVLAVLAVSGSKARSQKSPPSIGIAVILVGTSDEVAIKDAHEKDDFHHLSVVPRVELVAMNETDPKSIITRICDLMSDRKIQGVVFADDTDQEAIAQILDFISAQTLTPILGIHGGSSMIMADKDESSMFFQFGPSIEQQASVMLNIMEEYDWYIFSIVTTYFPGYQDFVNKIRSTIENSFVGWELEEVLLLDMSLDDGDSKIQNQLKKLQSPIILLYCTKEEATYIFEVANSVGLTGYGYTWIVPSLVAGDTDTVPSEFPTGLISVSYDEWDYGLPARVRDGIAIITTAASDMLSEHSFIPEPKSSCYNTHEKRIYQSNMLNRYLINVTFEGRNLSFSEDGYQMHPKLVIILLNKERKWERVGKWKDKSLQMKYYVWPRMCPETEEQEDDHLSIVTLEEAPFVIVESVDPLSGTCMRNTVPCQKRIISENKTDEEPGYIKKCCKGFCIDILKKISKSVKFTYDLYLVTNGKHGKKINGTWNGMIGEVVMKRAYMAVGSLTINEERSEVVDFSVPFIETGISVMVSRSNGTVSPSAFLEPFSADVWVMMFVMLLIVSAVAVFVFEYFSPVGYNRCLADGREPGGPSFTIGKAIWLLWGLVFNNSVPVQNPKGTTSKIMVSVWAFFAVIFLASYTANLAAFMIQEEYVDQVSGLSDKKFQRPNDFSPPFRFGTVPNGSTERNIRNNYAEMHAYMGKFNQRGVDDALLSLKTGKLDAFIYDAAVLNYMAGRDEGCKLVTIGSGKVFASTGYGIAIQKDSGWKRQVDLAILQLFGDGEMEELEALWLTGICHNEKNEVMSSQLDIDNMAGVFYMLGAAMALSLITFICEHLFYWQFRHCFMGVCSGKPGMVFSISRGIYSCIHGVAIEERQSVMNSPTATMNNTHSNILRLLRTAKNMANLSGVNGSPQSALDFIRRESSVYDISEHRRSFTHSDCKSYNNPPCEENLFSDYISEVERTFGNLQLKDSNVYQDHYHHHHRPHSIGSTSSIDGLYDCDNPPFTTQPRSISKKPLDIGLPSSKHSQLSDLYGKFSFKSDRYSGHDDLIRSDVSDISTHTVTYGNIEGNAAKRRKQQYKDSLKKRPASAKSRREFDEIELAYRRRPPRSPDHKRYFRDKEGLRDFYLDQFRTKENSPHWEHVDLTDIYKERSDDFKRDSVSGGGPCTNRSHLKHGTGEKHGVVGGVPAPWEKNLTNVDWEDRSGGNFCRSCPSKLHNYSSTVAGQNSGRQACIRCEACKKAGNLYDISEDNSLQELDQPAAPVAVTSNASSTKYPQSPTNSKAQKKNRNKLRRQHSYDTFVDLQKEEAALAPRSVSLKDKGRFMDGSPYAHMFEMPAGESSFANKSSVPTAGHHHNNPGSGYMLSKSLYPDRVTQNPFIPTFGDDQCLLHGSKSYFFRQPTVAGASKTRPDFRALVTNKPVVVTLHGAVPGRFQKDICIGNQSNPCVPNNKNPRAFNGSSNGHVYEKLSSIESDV

Target: Glutamate NMDA receptor; Grin1/Grin2b (Rattus norvegicus, UniProt P35439+Q00960)
Test: Antagonist activity at rat brain GluN1/GluN2B receptor expressed in Xenopus laevis oocytes assessed as inhibition of glutamate/glycine-induced channel current by two electrode voltage clamp method
Assay type: cell-based

- IC50: 2.1 µM
SMILES: CC12CC3CC(C)(C1)CC(N)(C3)C2 [MEMANTINE HYDROCHLORIDE]

Where a name gives a salt, the structure may show the parent alone.
